## Measured affinities in a library of Ab-14 heavy chain variants

All variants were tested on one target, the spike HR2 peptide PDVDLGDISGINAS (SARS-CoV-2).

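These sequences belong to a second round, designed from the earlier measurements on random variants of the parent. Group labels follow the data file (Ctrl: baseline library sampled from a position-specific scoring matrix, with some repeated check sequences; Rand: our label for a block that the file lists under HC and that is probably the random mutants of the ten best first-round binders; En: ensemble of fine-tuned language models; GP: Gaussian process model; GPLM: also part of the Gaussian process libraries; HC: hill climbing; Gen: genetic algorithm; Gibbs: Gibbs sampling; a sequence that several methods proposed may carry one label only). Affinity was read by AlphaSeq, a pooled yeast mating assay with surface-displayed partners. Binding brings cells together so that they mate, and sequencing counts the barcode pairs among the diploids. Read counts were normalised to the haploid input and turned into Kd by a linear fit to BCL2-family pairs of known affinity, for each replicate. Mating was done six times.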

Each scFv is VH, three GGGGS repeats, VL, as in the parent Ab-14, and differs from it in the CDRs of the heavy chain only.
VH: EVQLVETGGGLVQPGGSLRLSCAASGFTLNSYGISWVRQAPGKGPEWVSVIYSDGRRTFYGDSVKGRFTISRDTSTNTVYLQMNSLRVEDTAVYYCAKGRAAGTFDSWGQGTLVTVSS
VL: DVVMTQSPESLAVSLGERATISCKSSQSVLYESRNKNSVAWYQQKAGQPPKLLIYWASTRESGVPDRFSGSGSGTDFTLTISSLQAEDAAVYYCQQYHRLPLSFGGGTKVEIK

Each variant is given by its three heavy chain CDRs, as the data file delimits them; those of the parent are GFTLNSYGIS, VIYSDGRRTFYGDSVK, GRAAGTFDS.
Affinities are written as log10 Kd with Kd in nM; a lower number is a better binder.
An entry "ND" has no value in the source: the pair was not observed among the diploids in that replicate. This suggests poor binding but is not conclusive.

| CDR-H1 | CDR-H2 | CDR-H3 | group | log10 Kd (nM) by replicate | control signals |
|---|---|---|---|---|---|
| GALIEEYGIS | VIYADGVRKAYVNSFK | GEVGGTFTN | En_Gibbs | ND / ND / ND / ND / 2.78 / ND | 1/18 (2.86) |
| GFTLNEYGIS | VIYSDGRRTFYSDSVK | GREAGTFDS | GP_HC | -0.66 / -0.63 / -0.90 / -1.20 / -1.03 / -0.88 | 0/18 |
| GFWLNSYGIS | VIYSDGRRTFYGDSVK | GRAAGTFDS | Ctrl | 2.34 / ND / 2.34 / ND / ND / ND | 0/18 |
| GFDLNEYGIS | VIYADGVRTFYVDSVK | GETAGTFDL | En_HC | 0.26 / 0.44 / 1.05 / 0.23 / 0.69 / 0.63 | 0/18 |
| GFDLDEYGIS | VIYADGSRTAYADSVK | GNNAGTFDQ | En_Gen | 0.10 / -0.11 / -0.10 / -0.33 / -0.12 / 0.27 | 0/18 |
| GFTLNEYGIS | VIYSDGRRTFYTDSVK | GRCAGMFDS | GPLM_HC | ND / ND / ND / ND / ND / ND | 0/18 |
| GFTLNSYGIS | VIYSDGRRTFYDDAVK | GQLAGTFDS | GPLM_HC | 1.12 / 0.85 / 1.39 / 0.67 / 0.92 / 1.18 | 1/18 (2.07) |
| GFDLDEYGIS | VIYADGRRTFYADKVK | GENAGTFDI | En_HC | 0.76 / 0.02 / -0.22 / -0.47 / 0.03 / -0.13 | 0/18 |
| GFDLNEYGIS | VIYADGRRTAYTDSVK | GQLAGTFDT | En_HC | -0.42 / -0.26 / -0.57 / -0.74 / -0.67 / -0.58 | 0/18 |
| GFSLNEYGIS | VIYADGRRTFYGDSVK | GHAAGTFDS | GP_HC | -0.53 / -0.83 / 0.00 / -0.68 / -0.93 / -0.56 | 0/18 |
| GFDLNEYGIS | VIYADGRRTFYSDSVK | GQTAGTFDQ | En_HC | -0.12 / -0.22 / -0.13 / -1.01 / -0.40 / -0.31 | 0/18 |
| GFNLNSYGIS | VIYSDGRRTFYADSVK | GNAAGTFDA | GP_Gibbs | 2.71 / 1.39 / 0.90 / 0.87 / 0.80 / 2.91 | 2/18 (1.98) |
| GATLNSYGIS | VIYSDGRRTFYGDSVK | GRAAGTFDS | Ctrl | ND / 2.21 / ND / ND / 2.10 / ND | 0/18 |
| GFNLAEYGIS | VIYADGRRVAYANAVK | GKNGENFSF | En_Gibbs | ND / ND / ND / ND / ND / ND | 0/18 |
| GMKLQDYGIS | VIYADGRRTAFSESVK | GQIAGTFNF | En_Gibbs | ND / ND / -1.30 / ND / -0.13 / -1.13 | 0/18 |
| GFDLDEYGVS | VIYADGERTFYQDKVK | GTHGGTRDL | En_Gibbs | 1.57 / 2.53 / 2.05 / 2.94 / 2.12 / 2.60 | 0/18 |
| GFTLNSYGIS | VIYSDGMRTFYGDSVK | GKAAGTFDS | Ctrl | ND / 2.14 / 1.63 / 1.66 / 1.93 / 2.45 | 0/18 |
| GFTLNEYGIS | VILSDGRRTFYGDSVK | GRAAVTFDQ | Rand | ND / ND / ND / ND / ND / ND | 0/18 |
| GFDLNEYGIS | VIYADGQRRAAANTVK | GGAVGGQLD | En_Gibbs | ND / ND / ND / 3.33 / 2.43 / ND | 1/18 (0.83) |
| GFSLNSYGIS | VIYADGRRTVYGDSVK | GRAAGTFDS | GPLM_Gen | 0.10 / -0.15 / 0.38 / -0.07 / -0.43 / -0.19 | 0/18 |
| GFDLAEYGIS | VIYADGMRVSYNQNVK | GTGGGSFNF | En_Gibbs | ND / ND / ND / ND / ND / ND | 0/18 |
| GFTLESYGIS | VIYSDGRRTFYGDSVK | GRAAGTFTM | GP_HC | ND / ND / ND / ND / 1.41 / ND | 0/18 |
| GFQLDEYGIS | VIYADGKRTFYQDSVK | GEVAGTFDV | En_HC | -0.54 / -0.84 / -0.60 / -0.89 / -0.78 / -0.53 | 2/18 (1.27) |
| GEVLDEYGIS | VIYADGSRVAYTDAVK | GHHTGAFDM | En_Gibbs | ND / ND / ND / ND / ND / ND | 0/18 |
| GFDLNEYGIS | VIYADGKRTAYADNVK | GNVAGTFDV | En_Gen | -0.22 / -0.44 / -0.61 / -0.31 / -0.13 / -0.20 | 0/18 |
| GFNIQDYGIS | VIYADGKRTAYAEPVK | GNIGGTIDT | En_Gibbs | 1.15 / 1.43 / 0.28 / 0.65 / 0.65 / 0.69 | 0/18 |
| GFDLNEYGIS | VIYADGMRTFYTDSVK | GEVAGTFDA | En_HC | -0.36 / -0.30 / -0.42 / -0.32 / -0.46 / -0.65 | 1/18 (2.09) |
| GFDLDEYGIS | VIYADGQRTVYADSVK | GENAGTFDL | En_Gen | 0.54 / -0.38 / 0.06 / 0.67 / -0.13 / -0.52 | 1/18 (0.85) |
| GFDLNEYGIS | VIYADGQRTAYAESVK | GNVAGTFDV | En_Gen | -0.69 / -0.56 / -0.83 / -0.35 / -0.80 / -0.74 | 1/18 (0.84) |
| GFTLNSYGIS | VIYSDGRRTFYGDSVS | GEAIGCFDS | Ctrl | ND / ND / ND / ND / ND / ND | 1/18 (1.72) |
| GFELDEMGIS | VIYADGKRAAYSDNVK | GDNRGIFHM | En_Gibbs | ND / ND / ND / ND / ND / 2.03 | 1/18 (2.17) |
| GFSIDEYGIS | VIYADGVRQAYQDDVK | GQIGGFFNY | En_Gibbs | ND / 2.02 / ND / ND / 1.95 / ND | 0/18 |
| GFDLNEYGIS | VIYADGKRTAYADSVK | GNIAGTFDI | En_Gen | 0.10 / -0.45 / -0.52 / -0.57 / -0.59 / -0.07 | 0/18 |
| GFDLNSYGIS | VIYSDGRRTFYDDSVK | GRAAGTFDS | GPLM_HC | 0.30 / 0.33 / 0.02 / 0.29 / 0.72 / 0.42 | 0/18 |
| GFDLNEYGIS | VIYADGVRTFYTDSVK | GEHAGIFDV | En_HC | 0.40 / 0.71 / 0.44 / 0.48 / 0.41 / 0.72 | 1/18 (2.24) |
| GFTLDSYGIS | VIYSDGRRTFYGDSVK | GREAGTFDQ | GP_HC | 1.04 / 0.25 / 0.20 / 0.89 / 0.58 / -0.03 | 0/18 |
| GFDLNSYGIS | VIYSDGKRTFYQDKVK | GRTAGTFDS | GP_Gibbs | 1.24 / 0.11 / 0.97 / 0.80 / ND / 1.12 | 0/18 |
| GFWLNEYGIS | VIYSDGRRTFYGDSVK | GRQAGTFDA | GP_Gen | 1.91 / 1.44 / 1.29 / 1.53 / 0.91 / 1.39 | 0/18 |
| GFDLNEYGIS | VIYADGRRTFYTDSVK | GSEAGTFNM | En_HC | -0.59 / -0.62 / -0.67 / -0.72 / -0.91 / -0.55 | 3/18 (1.89) |
| GFDLNEYGIS | VIYADGRRTAYADTVK | GENAGTFDV | En_Gen | 0.61 / 1.05 / -0.31 / -0.40 / -0.05 / 0.21 | 0/18 |
| GFTLNSYGIS | VIYSDGRRTFYGDSVK | GRAAFTSDS | Ctrl | ND / ND / ND / ND / ND / ND | 0/18 |
| GFTFNQYGIS | VQYSDGRRTFYSDSVK | GRAAGFFDS | Rand | ND / ND / ND / ND / ND / ND | 1/18 (-0.60) |
| GFTLNEYGIS | VDYSDGRRTFYGDSVK | GRAHGTFDS | Ctrl | ND / ND / ND / ND / ND / ND | 0/18 |
| GFELNDYGIS | VIYSDGRRTFYCDSVK | GRTAGTFDT | GP_Gibbs | 0.86 / 0.47 / 0.37 / 0.50 / 0.42 / 0.58 | 0/18 |
| GFTLNSYGIS | VIYSDGRRTFYGDSVR | GRAAGQFPS | Ctrl | ND / ND / ND / ND / ND / ND | 0/18 |
| GFTLNEYGIS | VIYCDGRHTFYGDSVK | GRAAVTFVQ | Rand | ND / ND / ND / ND / ND / ND | 0/18 |
| GDKLEDYGIS | VIYADGRRSYYVDNVK | GEYAGYFDV | En_Gibbs | ND / ND / ND / ND / 2.53 / ND | 3/18 (2.33) |
| GFDLNEYGIS | VIYADGVRQAYADSVK | GNVAGTFDQ | En_Gen | -0.77 / -0.71 / -0.70 / -1.05 / -0.98 / -0.84 | 0/18 |
| GFKINEYGIS | VIYADGQRVAYTNSFK | GTQAGMFFN | En_Gibbs | ND / ND / ND / ND / ND / ND | 0/18 |
| SFDLNSYGIS | VIYSDGRRTFYIDSVK | GNAAGTFDS | GP_Gen | 0.70 / 0.54 / 0.47 / 0.69 / 0.66 / 1.05 | 1/18 (2.95) |
| GFDLNEYGIS | VIYADGLRTFYTDSVK | GEAAGTFDS | En_HC | -0.64 / -0.64 / -0.82 / -0.68 / -0.78 / -0.32 | 0/18 |
| GFCLESYGIS | VIYSDGRRTFYGDSVK | GFARGTFES | Ctrl | ND / ND / ND / ND / ND / ND | 0/18 |

The closing 5 entries, repeated:

| CDR-H1 | CDR-H2 | CDR-H3 | group | log10 Kd (nM) by replicate | control signals |
|---|---|---|---|---|---|
| GFDLNEYGIS | VIYADGVRQAYADSVK | GNVAGTFDQ | En_Gen | -0.77 / -0.71 / -0.70 / -1.05 / -0.98 / -0.84 | 0/18 |
| GFKINEYGIS | VIYADGQRVAYTNSFK | GTQAGMFFN | En_Gibbs | ND / ND / ND / ND / ND / ND | 0/18 |
| SFDLNSYGIS | VIYSDGRRTFYIDSVK | GNAAGTFDS | GP_Gen | 0.70 / 0.54 / 0.47 / 0.69 / 0.66 / 1.05 | 1/18 (2.95) |
| GFDLNEYGIS | VIYADGLRTFYTDSVK | GEAAGTFDS | En_HC | -0.64 / -0.64 / -0.82 / -0.68 / -0.78 / -0.32 | 0/18 |
| GFCLESYGIS | VIYSDGRRTFYGDSVK | GFARGTFES | Ctrl | ND / ND / ND / ND / ND / ND | 0/18 |

In the paper, a design with two or fewer of six values counts as a poor binder.
As a blank, each scFv also met three strains without target: over all heavy chain designs, 1% of these pairings were detected, typically at 2.08 and seldom below 0.84. The control count says in how many pairings with the empty strains this scFv gave a signal, with their mean in brackets.
Values of this round are not directly comparable with the first-round values of the same sequences.

Source: Li et al. 2023 (doi:10.1038/s41467-023-39022-2), MIT Lincoln Laboratory and A-Alpha Bio; data file from the FLAb repository.